How the values were obtained:
[1] = species: Homo sapiens; experiment: Selectivity ratio of Ki for human CB1 receptor to Ki for human CB2 receptor
[2] = biological target: T1, Cannabinoid receptor 2 (Homo sapiens, UniProt P34972); experiment: Displacement of [3H]HU-243 from human CB2 receptor
[3] = biological target: Cannabinoid receptor 1 (Rattus norvegicus, UniProt P20272); experiment: Binding affinity to rat CB1 receptor
[4] = biological target: T1, Cannabinoid receptor 2; experiment: Binding affinity to human CB2 receptor

Protein sequences, listed by entry. Tags and fused reporters are not part of them.
UniProt P34972, whole entry: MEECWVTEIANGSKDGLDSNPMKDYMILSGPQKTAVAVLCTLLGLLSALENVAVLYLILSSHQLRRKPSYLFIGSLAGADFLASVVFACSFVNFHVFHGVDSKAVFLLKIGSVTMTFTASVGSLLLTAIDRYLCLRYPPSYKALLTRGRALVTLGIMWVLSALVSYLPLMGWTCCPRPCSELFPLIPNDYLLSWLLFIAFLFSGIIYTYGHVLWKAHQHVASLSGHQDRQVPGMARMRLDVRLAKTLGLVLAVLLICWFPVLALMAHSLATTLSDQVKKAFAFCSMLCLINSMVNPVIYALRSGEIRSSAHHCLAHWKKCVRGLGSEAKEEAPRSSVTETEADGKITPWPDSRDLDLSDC
UniProt P20272, whole entry: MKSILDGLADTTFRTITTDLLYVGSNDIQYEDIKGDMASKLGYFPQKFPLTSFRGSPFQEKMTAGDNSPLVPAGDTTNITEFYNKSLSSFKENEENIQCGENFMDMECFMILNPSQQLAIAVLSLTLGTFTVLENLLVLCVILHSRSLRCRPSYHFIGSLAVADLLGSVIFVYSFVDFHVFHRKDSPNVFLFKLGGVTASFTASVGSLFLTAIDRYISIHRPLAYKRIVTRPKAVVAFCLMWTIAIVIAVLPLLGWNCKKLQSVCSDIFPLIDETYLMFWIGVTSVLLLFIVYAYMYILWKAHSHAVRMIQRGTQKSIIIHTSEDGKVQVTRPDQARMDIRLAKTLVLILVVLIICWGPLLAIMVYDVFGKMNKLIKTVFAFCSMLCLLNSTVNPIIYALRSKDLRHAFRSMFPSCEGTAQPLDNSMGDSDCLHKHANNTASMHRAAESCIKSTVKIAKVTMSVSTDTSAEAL

**Q.** With `COCCn1c(C)c(C)s/c1=N\C(=O)C1C(C)(C)C1(C)C` as the compound, how does the Ratio Ki [1] read?
**A.** The Ratio Ki was 425.

**Q.** For `CCCCCCC(C)(C)c1cc(OC)c([C@H]2C=C(CO)[C@H]3C[C@@H]2C3(C)C)c(OC)c1`, which Ki [2] is on record?
**A.** Its Ki is 22.7 nM.

**Q.** Which Ki [3] does the source give for `CCCCC/C=C\C/C=C\C/C=C\C/C=C\CCCC(=O)OC(CO)CO` [2-ARACHIDONOYLGLYCEROL] here?
**A.** Its Ki is 472 nM.

**Q.** For `C=C(C)[C@@H]1CCC(C)=C[C@H]1c1c(O)cc(CCCCC)cc1O` [CANNABIDIOL], which Ki [4] is on record?
**A.** The Ki was 2860 nM.

From ChEMBL document CHEMBL3232786, “Therapeutic utility of cannabinoid receptor type 2 (CB(2)) selective agonists” (J Med Chem, 2013)
